Experimental: Mice female DBA/1 of body mass 22.9-25.8 g were used in this experiment. Tumors were developed by s.c. inoculation of 0.2 ml of a tumor homogenate diluted in 1:1 volume ratio with an isotonic glucose solution. Tested compounds were applied in a form of an isotonic water solution prepared immediately before application by dissolution of corresponding lyophilised product in water for injections and further by dilution with isotonic sodium chloride solution ad hoc according to the need, in volumes of 0.1-0.4 ml per 20 g of body mass of an animal, as apparent from the following table.

In the case of “cis-(1-adamantylamine) amminedichloroplatinum (II) [LA-9]”, the “loss of body weight” value (administration of LA-9 to tumor-bearing mice) is reported as “less than 10%” and the “maximum tolerable dose (MDT)” value (estimated, mice) is reported as “around 25 mg/kg”.

Source: patent publication US6350737B1, “Platinum complex, its preparation and therapeutic application” (Pliva-Lachema, A.S., priority 1998, dated 2002)
